Measurements: publication PMC8878317, “Chemogenomics identifies acetyl-coenzyme A synthetase as a target for malaria treatment and prevention” (Cell Chemical Biology, 2022)

System: histone acetylation in P. falciparum 3D7-A10
Assay: Histone acetylation Western blot, wild-type 3D7-A10
Format: cell-based
Conditions: trophozoites, 3 h exposure

Compound | acetylation of H4K8ac, H3K9ac and tetra-acetylated H4 (H4Ac4) histone markers relative to DMSO
O=C(NNC(=O)c1csnn1)c1ccc(Cl)cc1 [MMV084978] | dose-dependent reduction
CCN(CC)S(=O)(=O)c1ccc(Cl)c(C(=O)Nc2ccc3nc(C)sc3c2)c1 [MMV019721] | dose-dependent reduction
